Assay results as given in patent US20190008965A1.

Target: epidermal growth factor receptor (EGFR) (human) (UniProt P00533)
Experiment: cell-based or functional assay

Substance: PD-NRs functionalized with anti-EGFR antibodies (anti-EGFR-PD-NRs): ERBITUX (cetuximab) immobilized on polydopamine-coated gold nanorods (antibody)
- viability of OSCC15 cells after incubation with 9.92 pM NRs and 5 minutes of irradiation: 24%
